Measurements as given in patent US12570650B2, “6-substituted pyridazine compounds as SMARCA2 and/or SMARCA4 degraders” (Aurigene Oncology Limited, priority 2020, dated 2026).

Chains of the proteins cited; added tags and fusions are not shown.
UniProt P51532, whole entry: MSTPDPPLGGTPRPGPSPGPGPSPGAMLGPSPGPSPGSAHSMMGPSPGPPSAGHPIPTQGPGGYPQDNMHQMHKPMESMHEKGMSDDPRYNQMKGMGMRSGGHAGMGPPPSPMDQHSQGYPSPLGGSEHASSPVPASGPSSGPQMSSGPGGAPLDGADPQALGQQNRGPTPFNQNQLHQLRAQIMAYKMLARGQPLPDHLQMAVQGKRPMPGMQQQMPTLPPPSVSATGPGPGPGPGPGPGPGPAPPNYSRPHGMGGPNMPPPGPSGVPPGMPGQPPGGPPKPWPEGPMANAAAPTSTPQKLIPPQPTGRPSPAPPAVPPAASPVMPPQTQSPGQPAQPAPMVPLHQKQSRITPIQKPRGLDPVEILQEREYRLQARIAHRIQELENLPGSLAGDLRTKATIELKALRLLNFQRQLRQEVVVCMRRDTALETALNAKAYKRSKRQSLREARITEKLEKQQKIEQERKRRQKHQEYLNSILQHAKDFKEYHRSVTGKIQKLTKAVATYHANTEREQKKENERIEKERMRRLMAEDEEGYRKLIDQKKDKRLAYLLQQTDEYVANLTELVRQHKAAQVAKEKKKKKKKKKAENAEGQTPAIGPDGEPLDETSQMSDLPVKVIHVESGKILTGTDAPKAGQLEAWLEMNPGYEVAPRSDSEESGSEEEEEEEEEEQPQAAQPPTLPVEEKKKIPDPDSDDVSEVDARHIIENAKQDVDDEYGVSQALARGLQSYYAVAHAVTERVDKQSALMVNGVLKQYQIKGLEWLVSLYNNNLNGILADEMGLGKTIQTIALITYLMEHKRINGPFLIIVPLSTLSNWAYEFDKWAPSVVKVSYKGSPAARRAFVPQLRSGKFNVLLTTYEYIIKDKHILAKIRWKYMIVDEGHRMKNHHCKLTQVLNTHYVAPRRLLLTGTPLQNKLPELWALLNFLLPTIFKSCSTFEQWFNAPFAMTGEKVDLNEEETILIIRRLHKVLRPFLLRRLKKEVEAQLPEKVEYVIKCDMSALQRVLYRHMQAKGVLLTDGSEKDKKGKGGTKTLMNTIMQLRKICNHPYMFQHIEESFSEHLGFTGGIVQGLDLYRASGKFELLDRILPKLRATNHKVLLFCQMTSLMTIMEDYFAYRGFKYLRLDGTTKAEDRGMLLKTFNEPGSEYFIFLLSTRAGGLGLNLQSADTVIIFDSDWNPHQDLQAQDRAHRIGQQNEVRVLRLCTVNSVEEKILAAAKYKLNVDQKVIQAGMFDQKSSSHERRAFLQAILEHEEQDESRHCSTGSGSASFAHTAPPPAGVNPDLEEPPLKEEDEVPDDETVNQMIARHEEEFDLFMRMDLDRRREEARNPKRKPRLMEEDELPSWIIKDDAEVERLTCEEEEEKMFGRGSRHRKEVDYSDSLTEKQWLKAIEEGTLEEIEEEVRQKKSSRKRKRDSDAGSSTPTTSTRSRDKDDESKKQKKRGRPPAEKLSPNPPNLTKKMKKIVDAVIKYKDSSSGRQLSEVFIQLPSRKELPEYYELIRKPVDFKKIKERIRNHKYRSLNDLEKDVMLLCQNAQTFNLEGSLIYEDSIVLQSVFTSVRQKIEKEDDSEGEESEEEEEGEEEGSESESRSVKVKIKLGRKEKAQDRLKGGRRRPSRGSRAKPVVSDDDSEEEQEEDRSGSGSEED

Target: T1, SMARCA4 (Homo sapiens, UniProt P51532)
T1 construct: Determination of SMARCA2 and SMARCA4 Degradation in VCaP Cells by Western Blot; endogenous in cells; host or cells: VCaP (ATCC CRL-2876)
Experiment: SMARCA4 degradation in VCaP cells by Western blot
Type: cell-based
Settings: 16 hours
Method: On the third day, compounds of present invention were added to cells from 10 mM stocks made in DMSO (Sigma Cat no. D2650). Each concentration of compound was tested with DMSO not exceeding final percentage of 0.3 in the cells. […] Equal amount of protein was loaded on SDS PAGE gel for electrophoresis. […] Percentage of SMARCA2 or SMARCA4 degradation was calculated using formula % Degradation=100−(normalized band intensity in treated sample/normalized band intensity in DMSO sample)*100.

Row | Compound | Percent degradation (at 100 nM) SMARCA4 [%]
1 | Cc1ncsc1-c1ccc([C@H](C)NC(=O)[C@@H]2C[C@@H](O)CN2C(=O)C(c2cc(OCCOc3ccc(-c4cnnc(-c5ccccc5O)c4)cc3)no2)C(C)C)cc1 (mixture of isomers) [Compound 42, (2S,4R)-4-hydroxy-1-(2-(3-(2-(4-(6-(2-hydroxyphenyl)pyridazin-4-yl)phenoxy)ethoxy)isoxazol-5-yl)-3-methylbutanoyl)-N-((S)-1-(4-(4-methylthiazol-5-yl)phenyl)ethyl)pyrrolidine-2-carboxamide] | 0
2 | Cc1ncsc1-c1ccc([C@H](C)NC(=O)[C@@H]2C[C@@H](O)CN2C(=O)[C@@H](NC(=O)CN2CCC(Nc3ccc(-c4cnnc(-c5ccccc5O)c4)cc3)CC2)C(C)(C)C)cc1 [Compound 45, (2S,4R)-4-hydroxy-1-((S)-2-(2-(4-((4-(6-(2-hydroxyphenyl)pyridazin-4-yl)phenyl)amino)piperidin-1-yl)acetamido)-3,3-dimethylbutanoyl)-N-((S)-1-(4-(4-methylthiazol-5-yl)phenyl)ethyl)pyrrolidine-2-carboxamide] | 57
